## Yeast mating assay 1: variants of the scFv Ab-14

Values reported by Engelhart et al. 2022, doi:10.1038/s41597-022-01779-4 (FLAb copy).

Target: peptide PDVDLGDISGINAS, taken from heptad repeat 2 (HR2) of SARS-CoV-2 spike.

Ab-14 is the parent antibody, in scFv form: VH, then a (GGGGS)3 linker, then VL. The heavy chain is unchanged in all variants.
VH: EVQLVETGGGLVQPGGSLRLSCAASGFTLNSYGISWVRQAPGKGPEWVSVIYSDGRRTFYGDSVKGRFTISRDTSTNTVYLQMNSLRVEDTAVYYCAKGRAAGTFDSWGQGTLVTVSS
VL: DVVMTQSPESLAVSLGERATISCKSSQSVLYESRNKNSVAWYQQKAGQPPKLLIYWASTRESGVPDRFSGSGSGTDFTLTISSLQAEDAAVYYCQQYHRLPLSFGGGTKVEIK

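Variants in AAYL50 differ from the parent at up to three CDR positions; double and triple changes were sampled at random. AlphaSeq pools MATa yeast showing the antibodies with MATalpha yeast showing the peptide. The frequency of each diploid, read from paired DNA barcodes, reflects how well the two displayed proteins bind. Scores were corrected for input abundance and mapped to Kd with protein pairs of known affinity run in the same pool. The assay was run in three technical replicates.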

Each variant is given by its three light chain CDRs, as the data file delimits them; those of the parent are KSSQSVLYESRNKNSVA, WASTRES, QQYHRLPLS. Affinities are written as log10 Kd with Kd in nM; a lower number is a better binder. Averages over replicates are reported, and they cover detected replicates only. Where no diploid with the target was found in any replicate, the entry reads "no signal": below detection, most likely a poor binder, though not proof of it. Background: pairings of library AAYL50 with three empty control strains gave a value in 18% of cases (median 4.19, 5th percentile 2.99). Values in that range, when seen in few replicates, are hard to tell from nonspecific mating. Also given: how often the same scFv was detected with the empty control strains.

CDR-L1 | CDR-L2 | CDR-L3 | log10 Kd (nM), mean | detected | control signals
KSSQSVLYESRNKNSVA | WASRRES | QQYHRMSLS | 3.72 | 1 of 3 | 2 of 9
KSSQHVLYESRNKNSVA | WAKTRES | QQYDRLPLS | 2.56 | 3 of 3 | 2 of 9
KSSQSVLYEQRNKNSVA | WTRTRES | QQYHRLPLS | 3.20 | 1 of 3 | 0 of 9
KSSQSVLYESRNKNSVA | WGSTREK | QQYHKLPLS | 0.83 | 3 of 3 | 0 of 9
KSSYSVLYESRNKNSVA | WASTRES | QHYHRLYLS | no signal | 0 of 3 | 0 of 9
KSSQSVLYESANINSVA | WAKTRES | QQYHRLPLS | 2.65 | 3 of 3 | 1 of 9
KSSQLVHQESRNKNSVA | WASTRES | QQYHRLPLS | 0.69 | 3 of 3 | 1 of 9
KSSQSDLYESRNKNSVN | WASTREM | QQYHRLPLS | no signal | 0 of 3 | 1 of 9
KSSQSVLYESRNKNSVA | WISTRES | QMYHILPLS | 3.46 | 2 of 3 | 0 of 9
KSSASVLYESRNKNSVQ | WASTRES | QQYKRLPLS | no signal | 0 of 3 | 0 of 9
KSSQSVLYESRNSNSVA | WASTRES | QQYHRYPLS | 1.36 | 2 of 3 | 0 of 9
KSSMSVLYESRCKNSVA | WASTRES | QQYGRLPLS | 1.20 | 3 of 3 | 1 of 9
KSSQSVRYESRNKNSVA | WASTREW | QQYRRLPLS | 1.53 | 3 of 3 | 2 of 9
KSSQSVLYESREENMVA | WASTRES | QQYHRLPLS | 2.32 | 3 of 3 | 0 of 9
KSSQSVLYTSRNKNSVA | WASTRES | QQYHRLPLC | 1.53 | 3 of 3 | 0 of 9
KSKQSVLYESRNKNSVA | WASTRES | QQYHRLRVS | 1.28 | 3 of 3 | 1 of 9
KSSVSVLYESRNKNSVA | WASTRWS | QCYHRLPLS | 3.28 | 3 of 3 | 5 of 9
KSSQSVLYESRNKKSVA | WASTRES | QQQHRLPQS | no signal | 0 of 3 | 0 of 9
SSSQSVLYESRNKNSVA | WASTRES | QQTHRLPCS | 6.24 | 1 of 3 | 2 of 9
KSSQMVLYESRNKASVD | WASTRES | QQYHRLPLS | no signal | 0 of 3 | 0 of 9
KSSQSVLYQSDNKNSVA | WRSTRES | QQYHRLPLS | 2.98 | 3 of 3 | 0 of 9
DSDQSVLYNSRNKNSVA | WASTRES | QQYHRLPLS | 2.29 | 3 of 3 | 0 of 9
KSSQVVLYESRNKNSVA | WASTRES | QQYHRLPYS | 4.51 | 2 of 3 | 1 of 9
ISSNSVLYEDRNKNSVA | WASTRES | QQYHRLPLS | 0.97 | 3 of 3 | 0 of 9
KSSQCVLYASRNKNCVA | WASTRES | QQYHRLPLS | no signal | 0 of 3 | 1 of 9
KSWQSVLYESRNKMSVA | WASTRES | QNYHRLPLS | no signal | 0 of 3 | 1 of 9
KSSQIVLYESRNKNSVA | WASTRES | QQYHSLPLS | 2.01 | 3 of 3 | 4 of 9
KSSQSVLYESRWKNSVA | WASTRES | CQYHRLPLS | no signal | 0 of 3 | 0 of 9
SSSQSVLYESTNKNSVA | WASTRES | QQYHRSPLS | 4.22 | 2 of 3 | 1 of 9
LSNQSVLYESRNKNSVA | WASTREI | QQYHRLPLS | 1.99 | 3 of 3 | 0 of 9
KSSQSVLYKSRNKCSVA | WAFTRES | QQYHRLPLS | 4.19 | 1 of 3 | 0 of 9
KSSQSLLYWSRNKNSVA | WQSTRES | QQYHRLPLS | 2.07 | 3 of 3 | 0 of 9
SSSQSFLYESRNKNSVA | WASTRES | QQYHRCPLS | 5.81 | 1 of 3 | 0 of 9
KSSQSVLYESRNKNSVA | WWSTGVS | QQYHRLPLS | 4.08 | 1 of 3 | 1 of 9
KSSQSVLFQSRNKNSVA | WASTRES | QQYMRLPLS | 0.99 | 3 of 3 | 5 of 9
KSSSSVLYESRNKNSVA | WASTRES | QQYWRLPLS | 1.03 | 3 of 3 | 2 of 9
KSSQSVLYASRNKNSVA | WASTRMS | QQYHRDPLS | 0.81 | 3 of 3 | 0 of 9
KSSQRVLYESRNKNSVA | WASTRED | QQYHRLPLS | 1.68 | 3 of 3 | 3 of 9
KSSQSVLYESRNKNSVA | IASTRES | QQYVSLPLS | 3.69 | 1 of 3 | 5 of 9
KSSQSVLYESHNKVSVA | WAHTRES | QQYHRLPLS | no signal | 0 of 3 | 1 of 9
KSSQSVLYEERDKNSVA | WTSTRES | QQYHRLPLS | 0.91 | 3 of 3 | 3 of 9
KSSQSVLYESRNKNSVA | YARTRES | QQYHRLPLS | 1.71 | 3 of 3 | 0 of 9
KSSQSVKYESRNKDSVA | WASTRKS | QQYHRLPLS | 4.13 | 3 of 3 | 3 of 9
KGSQSVLYESRNKNSVA | WASTREL | QQYFRLPLS | 1.10 | 3 of 3 | 1 of 9
KSSQSVLYESRNKNSVA | WASTRES | QQYCRLELS | 4.44 | 2 of 3 | 2 of 9
KSSQSVLYESRNKNNVA | IASTREF | QQYHRLPLS | no signal | 0 of 3 | 1 of 9
KSSQSVLKESRNKNSVA | WASTRES | QQYHMLPES | no signal | 0 of 3 | 0 of 9
KSSQSSLYESRNKNSGA | WASTDES | QQYHRLPLS | 3.40 | 1 of 3 | 0 of 9
KWQQSVLYESRNKNSVA | WASQRES | QQYHRLPLS | 0.73 | 3 of 3 | 3 of 9
KSSQSVPYESRNKHSVA | WASTRES | QQYHRGPLS | 5.08 | 1 of 3 | 0 of 9

The first 8 entries again:

| CDR-L1 | CDR-L2 | CDR-L3 | log10 Kd (nM), mean | detected | control signals |
|---|---|---|---|---|---|
| KSSQSVLYESRNKNSVA | WASRRES | QQYHRMSLS | 3.72 | 1 of 3 | 2 of 9 |
| KSSQHVLYESRNKNSVA | WAKTRES | QQYDRLPLS | 2.56 | 3 of 3 | 2 of 9 |
| KSSQSVLYEQRNKNSVA | WTRTRES | QQYHRLPLS | 3.20 | 1 of 3 | 0 of 9 |
| KSSQSVLYESRNKNSVA | WGSTREK | QQYHKLPLS | 0.83 | 3 of 3 | 0 of 9 |
| KSSYSVLYESRNKNSVA | WASTRES | QHYHRLYLS | no signal | 0 of 3 | 0 of 9 |
| KSSQSVLYESANINSVA | WAKTRES | QQYHRLPLS | 2.65 | 3 of 3 | 1 of 9 |
| KSSQLVHQESRNKNSVA | WASTRES | QQYHRLPLS | 0.69 | 3 of 3 | 1 of 9 |
| KSSQSDLYESRNKNSVN | WASTREM | QQYHRLPLS | no signal | 0 of 3 | 1 of 9 |